PubChem BioAssay AID504773 (Broad Institute, 2011)
This is a selection; strong and weak results do not stand in their true shares. Measured potencies and affinities stand elsewhere. The source made the active and inactive calls.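 Rule for the calls: active = polarization signal falls with dose and the fitted half-maximal concentration is at or below ten times the sample's top valid dose; inconclusive = flat curve at 30 to 70% inhibition, or poor fit; inactive = signal rises, flat within 30%, or potency beyond limit.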

Target: Golgi-associated PDZ and coiled-coil motif-containing protein (Homo sapiens) (UniProt Q9HD26)
Assay: CAL PDZ peptide-binding inhibitors, dose response, biochemical, fluorescence polarization, Cerulean-tagged CAL PDZ, cherry-picks (AID 504773);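 note: 0% = DMSO neutral wells and -100% = excess unlabeled competitor peptide wells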
Conditions: 1 h; at 50 µM (top of the series)

In the case of `CC1CCNP(=O)(N(CCCl)CCCl)O1` (stereo unspecified), the activity change, negative = inhibition is reported as inactive: 22.7%.
